# Data: US20030119733A1, “Compositions and methods for inhibiting hepatocyte invasion by malarial sporozoites” (New York University, priority 1992, published 2003)
# Test system: P. berghei sporozoites
# Details: 1 hour at 37° C., 50 μg/ml
substance,measurement,value
dextran-sulfate,CSP reactions of treated sporozoites (crude measurement of viability),in the same proportion and with similar intensity as sporozoites incubated in medium alone
